ERG-DNA inh: blocks human ERG Ets domain binding to DNA | P11308 | fluorescence polarization, His-ERG Ets domain / labelled DNA | Potency, µM (doses to about 76.9 µM), hits mostly inhibitors | 370,000 tested, 0.028% active; active = well fitted inhibition curve with a large enough effect in the polarisation, with a control signal flat; inconclusive = small, poorly fitted or top-dose-only effect, or effect the other way, or a change in a side signal; inactive = no such curve, though single readings can be large or run the other way; the % refers to the polarisation;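 note: polarization taken with two DNA probes labelled with fluorescein and Texas red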
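His-tagged ERG Ets domain (1 uM in the protein solution; 300mM KCl, 50mM Tris-HCl, 1mM EDTA, 1mM DTT, pH 7.5) received compound, then a probe mix of 5 nM fluorescein-DNA and 100nM Texas-615-DNA. Fluorescence polarization was read for both dyes.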
Mito fusion yeast: blocks mitochondrial division or promotes mitochondrial fusion; S. cerevisiae fusion-defective mutant growth rescue, CellTiterGlo 48 h; Potency, µM (highest dose often 46.1 µM), actives largely listed as activators; 320,000 tested, 0.23% active; note: nearly all actives have a fitted effect of over 45% in size
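Luminescent cell viability in 1536-well qHTS format served as the measure of rescued growth in ts fusion-mutant S. cerevisiae cultured on non-fermentable YPEG for 48 hours at 37C.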
miR-21 reporter: miR-21 reporter, rising signal; HeLa miR-21 FLuc reporter, luciferase, 48 h; Potency, µM (titrated, usually from 38.3 µM); AID 2288; 340,000 tested, under 10 active; active = well fitted rising curve with a large enough effect; inconclusive = small, poorly fitted or top-dose-only effect; inactive = no such curve, though single readings can be large or run the other way;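 further: miR-21 action dims this reporter so a rising signal means less miR-21 action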
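Compounds were titrated across several concentrations (up to approximately 40 uM) and incubated 48 hours with HeLa miR-21-FLuc reporter cells (miR-21 target sequence downstream of FLuc, endogenous miR-21). Readout was firefly luciferase luminescence after lytic detection reagent.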
RXFP1 antag: blocks the human relaxin receptor RXFP1; Q9HBX9; HEK293-RXFP1, relaxin-stimulated cAMP HTRF, 30 min; hits give low values; activity change, negative = inhibition, % at 57.5 µM; 350,000 tested, 0.59% active; AID 1259400;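 active = activity change of -60% or lower, but not beyond a set lower limit; inconclusive = change between -60% and -40%, or beyond the set limit; inactive = change above -40%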
ASM inhibitor: human S-ASM enzyme inhibition | placental ASM, HMU-PC fluorogenic substrate, 60 min | Potency, µM (titrated, usually from 57.5 µM), actives largely listed as inhibitors | 340,000 tested, 0.006% active
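Fluorogenic HMU-PC substrate (9 uM final) is turned over by placental ASM in 60 min at 37 C after a 10 min compound preincubation. Reaction ended by alkaline stop (pH 10), with fluorescence read at 386/447 nm.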
RXFP1 agonist: RXFP1 (human) receptor agonism; 370,000 tested, 0.3% active; Q9HBX9; HEK293T-RXFP1 cAMP TR-FRET, 30 min; response scale: percent of porcine relaxin response, buffer zero; Potency, µM (highest dose often 57.5 µM), most hits filed as activators; note: nearly all actives have a fitted effect of over 60% in size
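HEK293T cells stably expressing RXFP1 were pretreated with the PDE4 inhibitor Ro 20174, exposed to compounds for 30 min at 37C, lysed, and cAMP was read by TR-FRET. Data normalized to buffer (basal) and 29 nM porcine relaxin (100%).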
A number is an active result; . = inactive; ? = inconclusive; / = no result given; [ ] = another dose, or the depositor's remark. This is a sample that favours compounds with a hit; in the whole collection about 0.72% have one here. Unless noted, calls come from the whole dose curve; as a rule, active = well fitted curve in the direction sought with a large enough effect; inconclusive = small, poorly fitted or top-dose-only effect, or another doubt; inactive = no such curve, though single readings can be large; an effect the other way counts as inactive or inconclusive.

SMILES	ERG-DNA inh	Mito fusion yeast	miR-21 reporter	RXFP1 antag	ASM inhibitor	RXFP1 agonist
CCc1cccc(NC(=O)CCCn2nc(C)c3c(C)n(-c4ccccc4)nc3c2=O)c1	.	.	.	-65.6	.	.
CCOC(=O)c1cccc(NC(=O)CCCn2nc(C)c3c(C)n(-c4ccccc4)nc3c2=O)c1	.	/	.	.	/	.
COc1ccc(C(=O)N(c2ccc(C)cc2)S(=O)(=O)c2ccc(C)cc2)cc1	.	/	.	.	/	.
CC(=O)OCC(=O)[C@@]12N=C(C)O[C@@H]1C[C@H]1[C@@H]3CCC4=CC(=O)C=C[C@]4(C)[C@H]3[C@@H](O)C[C@@]12C	/	/	/	.	/	/
CN(Cc1ccc(OCC(O)CN(C)Cc2ccccc2)cc1)Cc1nccn1C (stereo unspecified)	.	.	.	.	.	.
COc1ccc(CN(C)CC(O)COc2ccc(-c3ccccc3)cc2)cc1OC (stereo unspecified)	.	.	.	-66.1	.	.
NC(=O)c1ccsc1NC(=O)COC(=O)/C=C/c1ccccc1	.	.	/	-68.6	.	.
COc1cc(C(=O)Nc2nc(-c3cccs3)cs2)cc(OC)c1OC	/	14.1µM	?	.	?	.
COc1ccc(C(=O)Nc2nc(-c3cccs3)cs2)cc1	.	?	.	/	.	.
O=C1c2ccc(Cl)cc2S(=O)(=O)c2cccc(C(=O)N3CCN(c4ccc(Cl)cn4)CC3)c21	.	?	/	/	.	.
CC(C)Oc1ccc(Br)cc1/C=N\NC(N)=S	.	.	.	-64.7	.	.
Cc1cc(/C=N/NC(N)=S)c(C)n1-c1ccc(Br)cc1	.	.	.	.	.	.
COC(=O)c1ccc2c(=O)n(-c3ccccc3)c(=S)[nH]c2c1	.	.	.	-98.7	.	.
COC(=O)c1ccc2c(=O)n(-c3ccccc3F)c(=S)[nH]c2c1	.	.	.	?	.	.
CCCCCCCCCC1(CC(=O)OCC)SCCN1C(N)=O (stereo unspecified)	/	/	/	.	/	/
S=C(Nc1ccccc1Cl)N(Cc1ccccc1)Cc1ccccn1	.	17.8µM	.	.	.	.
COc1ccc(N(Cc2ccccc2)C(=O)c2nc(S(C)(=O)=O)ncc2Cl)cc1	.	/	?	?	/	.
CCOC(=O)c1c(NC(=O)CSc2nc3ccc(OC)cc3[nH]2)sc2c1CC(C)(C)NC2(C)C	.	.	/	-62.2	.	.
CCn1c2c(c(=O)n3ncc(C(=O)Nc4ccc(C(=O)OC)cc4)c13)CN(Cc1ccc(OC)cc1)CC2	.	/	.	.	/	.
C/C(CC(=O)Nc1ccc2c(c1)OCCO2)=N\NC(=O)COc1ccc(C)cc1	.	.	.	-76.6	.	.
CC(C)(C)C(=O)NC(=S)NNC(=O)C(c1ccccc1)c1ccccc1	.	.	.	-94.4	.	.
CC(C)Cc1cc(C(=O)N2CCCC(C(=O)c3cc(F)ccc3F)C2)no1 (stereo unspecified)	.	11.2µM	.	.	.	.
O=C(c1cc(F)ccc1F)C1CCCN(C(=O)c2cccs2)C1 (stereo unspecified)	.	.	.	.	.	.
O=C(CN(C(=O)CNS(=O)(=O)c1ccccc1)c1ccc(F)cc1)NCc1ccco1	.	.	.	.	.	.
Oc1cccc(C2c3[nH]c4ccccc4c3CCN2Cc2ccc3c(c2)CCO3)c1 (stereo unspecified)	.	.	.	-60.8	.	.
SMILES	ERG-DNA inh	Mito fusion yeast	miR-21 reporter	RXFP1 antag	ASM inhibitor	RXFP1 agonist
Oc1cccc(C2c3[nH]c4ccccc4c3CCN2Cc2ccoc2)c1 (stereo unspecified)	.	.	.	.	.	.
Cc1onc(-c2ccccc2Cl)c1C(=O)Oc1cc(F)cc(F)c1	.	/	.	.	/	.
Cc1onc(-c2ccccc2Cl)c1C(=O)Oc1ccc(Cl)cc1Cl	.	/	.	-77.7	/	.
Cc1cc(N2CCN(C)CC2)nc2ccc(NC(=O)Nc3ccccc3Br)cc12	.	/	.	?	/	.
O=C(NC12CC3CC(CC(C3)C1)C2)c1ccc(Br)o1	.	.	.	-110.2	.	.
O=C(OCC(=O)c1ccc[nH]1)c1ccc(Cl)c(Cl)c1	.	/	/	-87.1	.	/
COc1ccccc1CC(=O)NNC(=O)c1ccco1	.	.	.	.	.	.
COc1ccc(-c2nc(-c3ccccc3)c(-c3ccc(O)cc3)[nH]2)cc1	.	/	.	-104.2	/	.
Cc1ccc(N=C2SC(C(=O)Nc3ccc(OC(F)(F)F)cc3)C(N)=C2C(=O)Nc2c(C)cc(C)cc2C)cc1 (stereo unspecified)	.	.	?	.	?	.
Cc1ccc(NC(=O)C2SC(=Nc3ccccc3)C(C(=O)Nc3ccc(Cl)cc3)=C2N)cc1 (stereo unspecified)	.	.	.	-66.4	.	.
O=S(=O)(O)OCC1OC(OC2(COS(=O)(=O)O)OC(COS(=O)(=O)O)C(OS(=O)(=O)O)C2OS(=O)(=O)O)C(OS(=O)(=O)O)C(OS(=O)(=O)O)C1OS(=O)(=O)O (stereo unspecified)	/	/	/	.	/	/
COc1ccc(NS(=O)(=O)c2cccc(NC(=O)c3ccc(Cl)nc3)c2)cc1	.	.	?	-71.2	.	.
O=S(=O)(NC1CCCC1)c1cccc(-c2nnc(-c3ccccc3)o2)c1	.	.	.	.	.	.
COc1ccc(NS(=O)(=O)c2cccc(-c3nnc(-c4ccccc4)o3)c2)cc1	.	12.6µM	.	.	.	.
O=C(Nc1cccc(S(=O)(=O)Nc2ccc(Cl)cc2)c1)c1ccc(Cl)nc1	.	.	?	.	?	.
NS(=O)(=O)c1ccc(N2CCCCS2(=O)=O)cc1	/	/	/	.	/	/
Cc1cccc(-n2nnnc2S(C)(=O)=O)c1	.	.	.	-83.9	/	.
CC(C)(C)c1cc(=O)[nH]c(SCc2ccccc2Cl)n1	.[15.4 µM]	.	.	-74.0	.	.
CC[C@@]1(O)C(=O)OCc2c1cc1n(c2=O)Cc2c-1nc1ccccc1c2/C=N/OC(C)(C)C	/	/	/	.	/	/
Cc1ccc(S(=O)(=O)c2nnn3c2nc(Nc2ccc(C(C)C)cc2)c2sccc23)cc1C	.	/	.	.	/	.
O=C(Nc1ccccc1O)N1c2ccccc2Sc2ccccc21	.	.	.	.	25.1µM	.
CC(C)=CCC/C(C)=C/CC/C(C)=C/CCC(=O)OC/C=C(\C)CCC=C(C)C	/	/	/	.	/	/
O=C(CCS(=O)(=O)c1nc(-c2cccs2)cc(C(F)(F)F)n1)Nc1cc(Br)ccc1O	.	/	?	-116.4	/	.
O=C(CCS(=O)(=O)c1nc(-c2cccs2)cc(C(F)(F)F)n1)Nc1ccc(Br)cc1	.	/	?	-108.3	/	.
